Tests used:
[1] = target: purified human autoBACE-2 (Homo sapiens (Human), UniProt Q9Y5Z0); test: BACE-2 Assay (BACE-HTRF assay); settings: read-out: BACE2 Ki; Ki calculated from IC50 using the Cheng-Prusoff equation; QSY7-EISEVNLDAEFC-Eu-amide substrate, pH 5.0
Experimental: Inhibitor IC50s at purified human autoBACE-2 are determined in a time-resolved endpoint proteolysis assay that measures hydrolysis of the QSY7-EISEVNLDAEFC-Eu-amide FRET peptide substrate (BACE-HTRF assay). BACE-mediated hydrolysis of this peptide results in an increase in relative fluorescence (RFU) at 620 nm after excitation with 320 nm light Inhibitor compounds, prepared at 3× the desired final concentration in 1×BACE assay buffer (20 mM sodium acetate pH 5.0, 10% glycerol, 0.1% Brij-35) supplemented with 7.5% DMSO are pre-incubated with an equal volume of autoBACE-2 enzyme diluted in 1×BACE assay buffer (final enzyme concentration 1 nM) in black 384-well NUNC plates for 30 minutes at 30° C. The assay is initiated by addition of an equal volume of the QSY7-EISEVNLDAEFC-Eu-amide substrate (200 nM final concentration, Km=8 μM […] for autoBACE-2) prepared in 1×BACE assay buffer supplemented with 7.5% DMSO and incubated for 90 minutes at 30° C. DMSO is present at 5% final concentration in the assay. Following laser excitation of sample wells at 320 nm, the fluorescence signal at 620 nm is collected for 400 ms following a 50 μs delay on a RUBYstar HTRF plate reader (BMG Labtechnologies). Raw RFU data is normalized to maximum (1.0 nM BACE/DMSO) and minimum (no enzyme/DMSO) RFU values. IC50, are determined by nonlinear regression analysis (sigmoidal dose response, variable slope) of percent inhibition data with minimum and maximum values set to 0 and 100 percent respectively. Similar IC50s are obtained when using raw RFU data. The Ki values are calculated from the IC50 using the Cheng-Prusoff equation.

Amino acid sequences for entries named in this document (tags omitted). Residues count along the entry.
UniProt Q9Y5Z0, 63-473 limits assumed: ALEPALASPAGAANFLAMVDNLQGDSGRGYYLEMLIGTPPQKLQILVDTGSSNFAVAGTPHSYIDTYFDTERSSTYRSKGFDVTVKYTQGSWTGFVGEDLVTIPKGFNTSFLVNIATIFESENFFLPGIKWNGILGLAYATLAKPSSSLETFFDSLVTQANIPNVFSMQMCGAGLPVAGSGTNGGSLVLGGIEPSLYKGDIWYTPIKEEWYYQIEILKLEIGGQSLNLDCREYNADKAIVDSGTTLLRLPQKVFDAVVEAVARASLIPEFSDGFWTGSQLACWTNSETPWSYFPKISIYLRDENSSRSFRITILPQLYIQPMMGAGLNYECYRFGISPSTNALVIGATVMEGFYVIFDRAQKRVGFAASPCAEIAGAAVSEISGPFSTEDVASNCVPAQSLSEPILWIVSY
UniProt P56817, 75-416 limits assumed: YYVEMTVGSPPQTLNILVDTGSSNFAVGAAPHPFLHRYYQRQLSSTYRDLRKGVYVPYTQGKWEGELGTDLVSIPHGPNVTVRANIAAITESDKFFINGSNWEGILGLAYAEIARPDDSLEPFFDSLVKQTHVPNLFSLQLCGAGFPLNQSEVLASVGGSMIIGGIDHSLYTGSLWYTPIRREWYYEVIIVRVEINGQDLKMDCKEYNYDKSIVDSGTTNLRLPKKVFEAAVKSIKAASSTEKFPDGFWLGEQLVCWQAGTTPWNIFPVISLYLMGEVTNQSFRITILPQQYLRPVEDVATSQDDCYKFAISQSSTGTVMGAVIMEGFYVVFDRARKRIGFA

[2] = target: soluble human BACE1 catalytic domain (Homo sapiens (Human), UniProt P56817); test: BACE1 HTRF FRET Assay; settings: read-out: BACE1 Ki; Ki calculated from IC50 using the Cheng-Prusoff equation; QSY7-APPswe-Eu substrate, pH 5.0
Description: Na^+-Acetate pH 5.0; 1% Brij-35; Glycerol; Dimethyl Sulfoxide (DMSO); Recombinant human soluble BACE1 catalytic domain (>95% pure); APP Swedish mutant peptide substrate (QSY7-APP^swe-Eu): QSY7-EISEVNLDAEFC-Europium-amide.
A homogeneous time-resolved FRET assay can be used to determine IC50 values for inhibitors of the soluble human BACE1 catalytic domain. This assay monitors the increase of 620 nm fluorescence that resulted from BACE1 cleavage of an APPswedish APP^swe mutant peptide FRET substrate (QSY7-EISEVNLDAEFC-Europium-amide). This substrate contains an N-terminal QSY7 moiety that serves as a quencher of the C-terminal Europium fluorophore (620 nm Em). In the absence of enzyme activity, 620 nm fluorescence is low in the assay and increased linearly over 3 hours in the presence of uninhibited BACE1 enzyme Inhibition of BACE1 cleavage of the QSY7-APP^swe-Eu substrate by inhibitors is manifested as a suppression of 620 nm fluorescence.
Varying concentrations of inhibitors at 3× the final desired concentration in a volume of 10 ul are preincubated with purified human BACE1 catalytic domain (3 nM in 10 μl) for 30 minutes at 30° C. in reaction buffer containing 20 mM Na-Acetate pH 5.0, 10% glycerol, 0.1% Brij-35 and 7.5% DSMO. Reactions are initiated by addition of 10 μl of 600 nM QSY7-APP^swe-Eu substrate (200 nM final) to give a final reaction volume of 30 μl in a 384 well Nunc HTRF plate. The reactions are incubated at 30° C. for 1.5 hours. The 620 nm fluorescence is then read on a Rubystar HTRF plate reader (BMG Labtechnologies) using a 50 millisecond delay followed by a 400 millisecond acquisition time window Inhibitor IC50 values are derived from non-linear regression analysis of concentration response curves. Ki values are then calculated from IC50 values using the Cheng-Prusoff equation using a previously determined […] of 8 μM for the QSY7-APP^swe-Eu substrate at BACE1.

SMILES	Ki [1]	Ki [2]
CN=[S@@]1(=O)C[C@@](C)(c2cc(NC(=O)c3ccc(OC)cn3)ccc2F)NC(=N)N1C	12 nM	19 nM
CN=[S@@]1(=O)C[C@@](C)(c2cc(NC(=O)COC)ccc2F)NC(=N)N1C	23 nM	189 nM
CN=[S@]1(=O)C[C@@](C)(c2cc(NC(=O)c3ccc(OC)cn3)ccc2F)NC(=N)N1C		3 nM
CN=[S@@]1(=O)C[C@@](C)(c2cc(NC(=O)c3ccc(Cl)cn3)ccc2F)NC(=N)N1C	1 nM	5 nM
CN=[S@]1(=O)C[C@@](C)(c2cc(NC(=O)c3ccc(F)cn3)ccc2F)NC(=N)N1C	1 nM	2 nM
CN=[S@]1(=O)C[C@@](C)(c2cc(NC(=O)c3ccc(Cl)cn3)ccc2F)NC(=N)N1C	1 nM	1 nM
CN=[S@@]1(=O)C[C@@](C)(c2cc(NC(=O)c3ccc(F)cn3)ccc2F)NC(=N)N1C	2 nM	10 nM

Source: patent US9428476B2, “S-imino-S-oxo-iminothiadiazine compounds as BACE inhibitors, compositions, and their use” (Merck Sharp & Dohme Corp., priority 2013, dated 2016)
